This experiment deals with RANKL-兔Fc (rabbit). Put plainly: cell-based or functional assay.

商购Denosumab(lot:1041075) (antibody) displayed a 生物学活性量效曲线 IC50 (inhibition of RANKL-rabbit Fc driven RAW264.7 differentiation, TRAP/pNPP OD); Denosumab lot 1041075 of 1.03 ng/ml.

The values are drawn from patent CN111704670A.
